Conditions: in vivo

## C[N+]1(C)CCC(OC(=O)C(O)(c2ccccc2)C2CCCC2)C1.[Br-] (stereo not shown) [glycopyrrolate, 3-[(cyclopentylhydroxyphenylacetyl)oxy]-1,1-dimethylpyrrolidinium bromide]
both, human
  kel LS Mean Group A fasted: 0.2636 h⁻¹
  kel LS Mean Group B fed: 0.2283 h⁻¹
  kel Ratio (A − B): 1.154
  food effect on the pharmacokinetic parameters: appreciable
